For the experiment, the target named is cloned human CCR8 receptor stably expressed in L1.2 cells (Homo sapiens, UniProt P51685). In words: whole cell binding screen: inhibition of biotinylated human I309 binding to CCR8 (FMAT 8100 HTS). The settings on record: read-out: Ki of compounds to inhibit I-309 binding to CCR8; L1.2/hCCR8 cells, biotinylated human I-309, 10 point concentration response starting at 10 μM.

The chains behind the UniProt entries cited, without tags or fusion partners.
UniProt P51685, whole entry: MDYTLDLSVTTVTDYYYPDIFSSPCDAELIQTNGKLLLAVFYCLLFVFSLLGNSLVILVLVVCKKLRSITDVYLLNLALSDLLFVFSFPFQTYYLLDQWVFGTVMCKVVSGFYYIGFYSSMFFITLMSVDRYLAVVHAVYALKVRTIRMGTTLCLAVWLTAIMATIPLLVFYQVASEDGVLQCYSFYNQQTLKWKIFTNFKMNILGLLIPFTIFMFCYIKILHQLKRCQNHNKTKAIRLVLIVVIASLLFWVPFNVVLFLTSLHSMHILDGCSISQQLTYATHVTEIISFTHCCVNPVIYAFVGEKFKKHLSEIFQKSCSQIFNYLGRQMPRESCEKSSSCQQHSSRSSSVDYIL

pKi: −log10 of the molar value.

One may read the pKi as −log10 of the Ki, conventionally taken in molar units.

`Cc1ccccc1C(=O)Nc1ccc(S(=O)(=O)NC2CCN(C(=O)N3CCCC3)CC2)c2ccccc12`: the pKi is > 6.30.

Source of the values: patent US7491827B2, “Aryl sulfonamides useful as inhibitors of chemokine receptor activity” (Millennium Pharmaceuticals, Inc., priority 2003, dated 2009).
